What follows are compounds tested against Glycogen synthase kinase-3 beta (Homo sapiens, UniProt P49841).

Amino acid sequences for entries named in this document (tags omitted). A change or cut given only in a name is not applied to a line headed by its entry.
UniProt P49841: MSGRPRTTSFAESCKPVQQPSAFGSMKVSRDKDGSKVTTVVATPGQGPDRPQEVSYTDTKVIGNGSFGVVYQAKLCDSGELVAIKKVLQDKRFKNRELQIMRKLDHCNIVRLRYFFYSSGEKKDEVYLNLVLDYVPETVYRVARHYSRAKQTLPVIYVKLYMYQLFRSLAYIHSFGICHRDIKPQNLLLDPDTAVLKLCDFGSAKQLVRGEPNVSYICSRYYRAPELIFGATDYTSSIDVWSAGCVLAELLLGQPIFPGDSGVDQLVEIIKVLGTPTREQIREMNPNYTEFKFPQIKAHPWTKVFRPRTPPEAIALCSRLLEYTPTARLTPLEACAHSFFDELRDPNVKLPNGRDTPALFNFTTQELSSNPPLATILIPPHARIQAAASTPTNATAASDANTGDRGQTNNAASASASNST

Compound	IC50 [µM]
Cc1ccc(S(=O)(=O)n2cc(/C=C3\SC(=S)NC3=O)c3ccccc32)cc1	> 10
COc1cc(/C=C2\SC(=S)NC2=O)cc(Br)c1OCc1ccccc1C	> 10
CCCC1=C(c2nnc(C)o2)C(c2cccc(C#N)c2Br)c2c[nH]nc2N1 (centres undefined)	0.0007
O=C1NC(=O)C(c2cn(CCCO)c3ncccc23)=C1c1cnccn1	0.005

The remaining lines, values ahead:

IC50 [µM]	Compound
> 10	O=C1NC(=O)/C(=C/c2ccc(-c3cc([N+](=O)[O-])ccc3Cl)o2)S1
3.97	O=C1NC(=S)S/C1=C\c1ccc(O)c([N+](=O)[O-])c1
1.56	O=C1NC(=S)S/C1=C\c1ccccc1OS(=O)(=O)c1ccccc1[N+](=O)[O-]
5.56	COc1ccc(-c2ccc(/C=C3\SC(=S)NC3=O)o2)c([N+](=O)[O-])c1
> 10	Cc1ccc(/N=C2/NC(=O)S/C2=C\c2ccccc2Cl)cc1

From ChEMBL document CHEMBL1141635, “Novel GSK-3beta inhibitors from sequential virtual screening” (Bioorg Med Chem, 2008)
